Test results taken from patent US11807624B2, “Substituted pyrimidinones as agonists of the APJ receptor” (AMGEN INC., priority 2018, dated 2023).

Key:
[1] = target: human APJ receptor expressed in the CHO cell line (Homo sapiens (Human), UniProt P35414); conditions: APJ receptor expressed alone
[2] = target: human APJ-AT1R (angiotensin Type 1) double stable CHO cell line (Homo sapiens (Human), UniProt P35414); experiment: IP1 accumulation (TR-FRET), APJ-AT1R double stable CHO cell line; format: cell-based; conditions: AngII concentration range with fixed concentration of APJ agonist; APJ and AT1R co-expressed
Experimental: The plate was sealed and incubated for 1 hour.

APJ receptor = APJ receptor (Homo sapiens (Human), UniProt P35414); conditions: relative to apelin-36; cited from earlier work

| Substance | cooperativity on AngII-induced IP1 response [1] | cooperativity on AngII-induced IP1 response [2] | in vitro affinity to the APJ receptor, fold higher than apelin-36 (APJ receptor) [fold] |
| --- | --- | --- | --- |
| pyr apelin-13 | no positive cooperativity observed | induces the positive cooperativity on the AT1R | – |
| Apelin-13 | – | – | ~3.5 |
